ChEMBL document CHEMBL6109111, “Structure-activity relationship analysis of meta-substituted N-cyclopropylmethyl-nornepenthones with mixed KOR/MOR activities” (Eur J Med Chem, 2025)
pKi: −log10 of the molar value.

Protein sequences, listed by entry. Tags and fused reporters are not part of them.
UniProt P33535, whole entry, looked up: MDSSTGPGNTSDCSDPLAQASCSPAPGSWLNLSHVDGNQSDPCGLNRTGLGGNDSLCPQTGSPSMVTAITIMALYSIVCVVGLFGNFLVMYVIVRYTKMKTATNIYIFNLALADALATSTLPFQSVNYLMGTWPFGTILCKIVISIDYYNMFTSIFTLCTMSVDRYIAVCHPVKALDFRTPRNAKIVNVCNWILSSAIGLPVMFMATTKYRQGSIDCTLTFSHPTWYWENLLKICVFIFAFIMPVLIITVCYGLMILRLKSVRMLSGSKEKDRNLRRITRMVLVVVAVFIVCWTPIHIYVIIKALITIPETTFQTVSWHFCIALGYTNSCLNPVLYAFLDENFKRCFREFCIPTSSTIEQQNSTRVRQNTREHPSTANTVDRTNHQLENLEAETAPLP
UniProt P33533, whole entry, looked up: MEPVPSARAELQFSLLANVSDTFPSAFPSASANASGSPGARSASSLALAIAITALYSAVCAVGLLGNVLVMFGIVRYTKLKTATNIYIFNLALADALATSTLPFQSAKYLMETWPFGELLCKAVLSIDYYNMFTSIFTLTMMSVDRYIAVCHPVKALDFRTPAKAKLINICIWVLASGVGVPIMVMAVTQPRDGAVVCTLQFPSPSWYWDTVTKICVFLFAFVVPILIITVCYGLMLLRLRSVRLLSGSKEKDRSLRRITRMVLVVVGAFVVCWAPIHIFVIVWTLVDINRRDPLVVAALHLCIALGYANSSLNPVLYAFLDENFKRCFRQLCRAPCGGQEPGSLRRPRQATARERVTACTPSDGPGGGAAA

What was measured:
Mu-type opioid receptor = Mu-type opioid receptor (Rattus norvegicus, UniProt P33535); assay: Displacement of [3H]-diprenorphine from rat MOR expressed in CHO cell membrane assessed as inhibition constant incubated for 30 mins by liquid scintillation counting method
[1] = molecular target: Delta-type opioid receptor (Rattus norvegicus, UniProt P33533); assay: Displacement of [3H]-diprenorphine from rat DOR expressed in CHO cell membrane assessed as inhibition constant incubated for 30 mins by liquid scintillation counting method

SMILES: CN(C(=O)Cc1ccc(Cl)c(Cl)c1)[C@@H]1CCCC[C@H]1N1CCCC1
- pKi (Mu-type opioid receptor): 5.85
- pKi [1]: < 5.30
